This assay has as its system HIV replication in C8166 cells, virus coding for wild type reverse transcriptase. Briefly: microbe, parasite or virus in culture. It is filed as cell-based, HIV-1. The note with it: Human immunodeficiency virus 1, C8166, 72 h, read-out: EC50 (WT) (nM). How it is done: The compound of the invention was tested for its ability to inhibit HIV replication in cell culture in a 96-well plate assay. Complete RPMI 1640, consisting of RPMI 1640+10% fetal bovine serum, 10 μg/ml gentamycin and 10 μM β-mercaptoethanol was used for dilution of the compound as well as cell growth medium. The T lymphocyte cell line C8166 was infected at a multiplicity of infection of 0.001 with viruses coding for wild type and mutant reverse transcriptase. Cells were then incubated for three days in the presence of serial dilutions of the compound of the invention. The supernatant was pooled from eight replica wells and the concentration of extracellular p24 was determined using a commercially available HIV-1 p24 antigen assay kit (Beckman-Coulter®). The level of inhibition (% inhibition) was calculated with the following equation: [formula]
For `CCc1cc(C(=O)O)ccc1OCCc1cnc2c(c1)C(=O)N(C)c1cccnc1N2CC` [Entry 1003], the half-maximal effective concentration (EC50) is less than 50 nM. The value for `CCN1c2ncc(CCOc3ccc(C(=O)O)cc3Br)cc2C(=O)N(C)c2cccnc21` [Entry 1005] was less than 50 nM.

On to `CCN1c2ncc(CCOc3ccc(C(=O)O)cc3C)cc2C(=O)N(C)c2ccc(Cl)nc21` [Entry 1015], for which the EC50 was less than 50 nM. Next, `CCN1c2ncc(CCOc3ccc(C(=O)O)cc3C)cc2C(=O)N(C)c2ccc(C)nc21` [Entry 1017]: less than 50 nM. Next, `CCN1c2ncc(CCOc3ccc(C(=O)O)cc3C)cc2C(=O)N(C)c2ccc(OC)nc21` [Entry 1019]: less than 50 nM; `CCN1c2ncc(CCOc3ccc(C(=O)O)cc3C)cc2C(=O)N(C)c2ccc(F)nc21` [Entry 1020]: less than 50 nM.

A word on the EC50: it is the midpoint of the concentration-response curve.
